Results reported in patent US20250051337A1 (priority 2021, published 2025).

Sequences of proteins named here, by UniProt entry; tags and fusion partners are left off. A change or cut given only in a name is not applied to a line headed by its entry.
UniProt Q13043: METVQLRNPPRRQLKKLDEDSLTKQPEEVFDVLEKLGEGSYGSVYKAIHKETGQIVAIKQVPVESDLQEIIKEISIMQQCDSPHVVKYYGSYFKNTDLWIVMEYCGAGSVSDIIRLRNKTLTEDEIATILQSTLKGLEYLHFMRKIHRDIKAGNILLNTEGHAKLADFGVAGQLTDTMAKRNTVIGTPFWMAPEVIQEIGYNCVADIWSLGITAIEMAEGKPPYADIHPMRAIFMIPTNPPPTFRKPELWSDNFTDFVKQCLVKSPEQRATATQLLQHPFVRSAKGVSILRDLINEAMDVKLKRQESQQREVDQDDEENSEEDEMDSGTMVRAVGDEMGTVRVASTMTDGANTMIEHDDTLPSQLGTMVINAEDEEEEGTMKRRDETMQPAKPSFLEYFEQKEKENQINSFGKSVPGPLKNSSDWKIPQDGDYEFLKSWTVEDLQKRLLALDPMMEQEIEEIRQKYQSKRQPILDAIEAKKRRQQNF

Tests used:
STK4 [1] = biological target: T1, STK4 (Homo sapiens (Human), UniProt Q13043); assay: ADP-Glo kinase assay, STK4; format: biochemical; conditions: 50 μM ATP
Protocol: The STK3 kinase assay was performed in 5 μL reaction buffer containing 50 ng recombinant human STK3 protein (full length, SignalChem #S24-10G; Richmond, Canada), 250 μg/mL myelin basic protein (Sigma-Aldrich #M1891; St. Louis, MO, USA), and 50 μM ATP (Sigma-Aldrich #A7699). The STK4 kinase assay was performed in 5 μL reaction buffer containing 50 ng recombinant human STK4 protein (full length, SignalChem #S25-10G), 300 μg/mL Axltide (SignalChem #A16-58), and 50 μM ATP. […] Three experiments were performed, each in triplicate.

STK4 [2] = biological target: T1, STK4; assay: NanoBRET intracellular kinase assay, STK4; format: cell-based; conditions: transfected HEK293 cells, 2 h
Protocol: Full-length STK3, STK4, and LRRK2 kinase was cloned in-frame with a C-terminal NanoLuc-fusion (Promega: Madison, WI, USA) and the plasmid was transfected into HEK293T cells using FuGENE HD (Promega, E2312). […] After 2 h at 37° C. in a 5% CO2 atmosphere, NanoBRET NanoGlo Substrate+Extra-cellular NanoLuc Inhibitor (Promega, N2540) was added, and filtered luminescence was measured on a PHERAstar plate reader (BMG Labtech; Ortenberg, Germany) equipped with a lumi-nescence filter pair (450 nm BP filter (donor) and 610 nm LP filter (acceptor)).
This assay measured the apparent affinity of test compounds by competitive displacement of the NanoBRET™ tracer, reversibly bound to a NanoLuc® luciferase-kinase fusion in cells. To evaluate potential off-target activity of the inhibitors, the inhibition of LRRK2 in live cells by the STK3/4 inhibitors compounds described herein were measured. […] A 50 nM tracer and these compounds were added to cells and incubated for 2 h.

STK4 [3] = biological target: T1, STK4; assay: PhosphoSens CSox-based Sensor Assay, STK4; format: biochemical; conditions: Km ATP, mean n = 2
Protocol: Materials were obtained and prepared according to the assay manufacturer's protocol (Assay Quant Technologies: Marlborough, MA, USA). The 50 μL reaction was initiated by addition of a master mix containing the compounds or vehicle, kinase, and CSox-peptide substrate to a well containing the remaining components. […] Final concentrations were: […] HEPES pH 7.5, 50 μM ATP, 1.0 mM DTT, 0.01% Brij-35, 0.5 mM EGTA, 10 mM MgCl2, 10 μM peptide substrate (AQT0135), and 5.0 nM STK3 (SignalChem #S24-10G) or STK4 (SignalChem #S25-10G) kinases. […] Background-corrected RFU were plotted against time using Prism 8 software. Velocity determinations were calculated for each reaction and plotted versus compound concentration to generate inhibitor curves.
The PhosphoSens® CSox-based Sensor real-time kinetic assay uses a peptide substrate containing an unnatural amino acid and physiological Mg^2+ levels to quantify substrate phosphorylation using fluorescence.

OCCCNc1ncnc2[nH]cc(-c3cccc(Cl)c3)c12 [Compound 119, 3-((5-(3-chlorophenyl)-7H-pyrrolo[2,3-d]pyrimidin-4-yl)amino)propan-1-ol]
IC50 (STK4 [1]): < 1000 nM | IC50 (STK4 [2]): < 1000 nM

Clc1cccc(-c2c[nH]c3ncnc(N4CCCCC4)c23)c1 [Compound 15, 5-(3-Chlorophenyl)-4-(piperidin-1-yl)-7H-pyrrolo[2,3-d]pyrimidine]
IC50 (STK4 [1]): < 1000 nM | IC50 (STK4 [2]): < 1000 nM

COc1cccc(-c2c[nH]c3ncnc(N4CCOCC4)c23)c1 [Compound 8, 4-(5-(3-Methoxyphenyl)-7H-pyrrolo[2,3-d]pyrimidin-4-yl)morpholine]
IC50 (STK4 [1]): < 1000 nM

c1csc(-c2c[nH]c3ncnc(N4CCOCC4)c23)c1 [Compound 12, 4-(5-(Thiophen-2-yl)-7H-pyrrolo[2,3-d]pyrimidin-4-yl)morpholine]
IC50 (STK4 [1]): < 1000 nM

CC1(O)CCN(c2ncnc3[nH]cc(-c4cccc(Cl)c4)c23)CC1 [Compound 103, 1-(5-(3-chlorophenyl)-7H-pyrrolo[2,3-d]pyrimidin-4-yl)-4-methylpiperidin-4-ol]
IC50 (STK4 [1]): < 1000 nM

COc1ccccc1-c1c[nH]c2ncnc(N3CCOCC3)c12 [Compound 4, 4-(5-(2-Methoxyphenyl)-7H-pyrrolo[2,3-d]pyrimidin-4-yl)morpholine]
IC50 (STK4 [1]): < 1000 nM

Fc1ccccc1-c1c[nH]c2ncnc(N3CCOCC3)c12 [Compound 3, 4-(5-(2-Fluorophenyl)-7H-pyrrolo[2,3-d]pyrimidin-4-yl)morpholine]
IC50 (STK4 [1]): < 1000 nM

Fc1ccc(-c2c[nH]c3ncnc(N4CCOCC4)c23)cc1 [Compound 10, 4-(5-(4-Fluorophenyl)-7H-pyrrolo[2,3-d]pyrimidin-4-yl)morpholine]
IC50 (STK4 [1]): < 1000 nM

Cc1ccc(-c2c[nH]c3ncnc(N4CCOCC4)c23)cc1 [Compound 9, 4-(5-(p-tolyl)-7H-pyrrolo[2,3-d]pyrimidin-4-yl)morpholine]
IC50 (STK4 [1]): < 1000 nM

Cc1cccc(-c2c[nH]c3ncnc(N4CCOCC4)c23)c1 [Compound 5, 4-(5-(m-Tolyl)-7H-pyrrolo[2,3-d]pyrimidin-4-yl)morpholine]
IC50 (STK4 [1]): < 1000 nM | IC50 (STK4 [2]): < 1000 nM

Fc1cccc(-c2c[nH]c3ncnc(N4CCOCC4)c23)c1 [Compound 7, 4-(5-(3-Fluorophenyl)-7H-pyrrolo[2,3-d]pyrimidin-4-yl)morpholine]
IC50 (STK4 [1]): < 1000 nM | IC50 (STK4 [2]): < 1000 nM

CN(C)c1ncnc2[nH]cc(-c3cccc(Cl)c3)c12 [Compound 17, 5-(3-Chlorophenyl)-N,N-dimethyl-7H-pyrrolo[2,3-d]pyrimidin-4-amine]
IC50 (STK4 [1]): < 1000 nM

Clc1cccc(-c2c[nH]c3ncnc(NCC4CC4)c23)c1 [Compound 18, 5-(3-Chlorophenyl)-N-(cyclopropylmethyl)-7H-pyrrolo[2,3-d]pyrimidin-4-amine]
IC50 (STK4 [1]): < 1000 nM

NC(=O)c1cccc(-c2c[nH]c3ncnc(N4CCOCC4)c23)c1 [Compound 11, 3-(4-Morpholino-7H-pyrrolo[2,3-d]pyrimidin-5-yl)benzamide]
IC50 (STK4 [1]): < 1000 nM | Ki (STK4 [3]): 91 nM | IC50 (STK4 [2]): < 1000 nM

CC1(N)CCN(c2ncnc3[nH]cc(-c4cccc(Cl)c4)c23)CC1 [Compound 102, 1-(5-(3-chlorophenyl)-7H-pyrrolo[2,3-d]pyrimidin-4-yl)-4-methylpiperidin-4-amine]
IC50 (STK4 [1]): < 1000 nM

c1nc(N2CCOCC2)c2c(-c3ccoc3)c[nH]c2n1 [Compound 14, 4-(5-(Furan-3-yl)-7H-pyrrolo[2,3-d]pyrimidin-4-yl)morpholine]
IC50 (STK4 [1]): < 1000 nM

CCN(CCO)c1ncnc2[nH]cc(-c3cccc(Cl)c3)c12 [Compound 114, 2-((5-(3-chlorophenyl)-7H-pyrrolo[2,3-d]pyrimidin-4-yl)(ethyl)amino)ethan-1-ol]
IC50 (STK4 [1]): < 1000 nM

c1coc(-c2c[nH]c3ncnc(N4CCOCC4)c23)c1 [Compound 13, 4-(5-(Furan-2-yl)-7H-pyrrolo[2,3-d]pyrimidin-4-yl)morpholine]
IC50 (STK4 [1]): < 1000 nM
